# Experimental data published in PubChem BioAssay (Tox21).
# Where “and” joins values, the source holds several entries; their conditions need not be identical. Identical values can stand only once. The list shows a part of the results, in another mix than the full data. Inconclusive results are not listed. Calls of active or inactive are those of the source. Calls follow the shape of the dose curve; as a rule, active = well fitted cell-killing curve with a large enough effect in the repeat runs; inconclusive = weak or mixed curves, or effect the other way; inactive = flat fitted curve, though single readings scatter.
# Test: cAMP Responsive Elements (CRE) small molecule agonists, cell-based qHTS assay: qHTS cell viability counter screen (AID 2060914);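 also: viability read after 3 h of compound exposure; nearly all actives have a fitted effect of over 50% in size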
# Conditions: CRE-bla HEK293T viability, CellTiter-Glo luminescence, 5 h; at 42.5 µM (top of the series)
# Text: National Center for Advancing Translational Sciences [NCATS]
# Division of Preclinical Innovation [DPI]
# U.S. Environmental Protection Agency [EPA]
# National Institutes of Environmental Health Sciences [NIEHS]
# National Toxicology Program [NTP]
# U.S. Food and Drug Administration [FDA]
# CREB (cyclic-AMP Responsive Element Binding Protein) is a cellular transcription factor. It binds to certain DNA sequences called cAMP Responsive Elements (CRE) and regulates the transcription of the genes. […] This cell line can be used to find agonists/antagonists of the cyclic AMP signaling pathway. The activation of the report gene under culture conditions can be detected by fluorescence intensity. This cell line has been used to screen the Tox21 10K compound library to identify agonists that induce oxidative stress. The cytotoxicity of the Tox21 compound library against the CRE-bla cell line was tested in parallel by measuring the cell viability using CellTiter-Glo assay (Promega, Madison, WI) in the same wells.
# Tox21 Assay Protocol Summary:
# CRE-bla Hek 293T cells were suspended in assay medium (DMEM containing 10% dialyzed FBS, 0.1 mM NEAA, 1 mM sodium pyruvate and 25 mM HEPES) and dispensed at 2,000 cells/5 uL /well into 1536-well black wall/clear bottom plates using a Multidrop Combi (ThermoFisher Scientific, Waltham, MA) dispenser. After the assay plates were incubated at 37 C/5% CO2 for 18 hrs, 23 nL of compounds dissolved in DMSO, positive controls or DMSO only was transferred to the assay plate by a pintool workstation (Kalypsys, San Diego, CA). After the plates were incubated at 37 C/5% CO2 for 3 hrs, 1 uL of LiveBLAzer B/G FRET substrate (Invitrogen, Carlsbad, CA) was added to each well using Bioraptr Flying Reagent Dispenser (FRD, Aurora Discovery, San Diego, CA). The plates were incubated at room temperature for 2 h, then fluorescence intensities were measured using an Envision plate reader (PerkinElmer, Shelton, CT) at Excitation 405nm, Emission 460nm and 530nm. The % activity was determined from the ratio of 460nm/530nm. For cell viability readout that measures cytotoxicity, 4 uL /well of CellTiter-Glo reagent was added into the assay plates using Bioraptr FRD. After 30 min incubation at room temperature, the luminescence intensity in the assay plates was measured using a ViewLux (PerkinElmer, Shelton, CT) plate reader.
# % is scaled to controls: 0 for no effect and ±100 for the full control effect.
row,Structure (SMILES),"activity change, negative = cytotoxicity"
1,OCCSCCO,inactive: -8.88%

# Same assay, conditions: CRE-bla HEK293T viability, CellTiter-Glo luminescence, 5 h; at 92.4 µM (top of the series)
row,Structure (SMILES),"activity change, negative = cytotoxicity"
1,OCCSCCO,inactive: -0.107%

# Same assay, conditions: CRE-bla HEK293T viability, CellTiter-Glo luminescence, 5 h; at 92.4 µM (top of the series) unless noted
row,Structure (SMILES),"activity change, negative = cytotoxicity"
1,N=C(N)N[N+](=O)[O-],inactive: 4.19%
2,C/C1=C2N=C(/C=C3N=C(/C(C)=C4\[N-][C@@](C)([C@@H]5N=C1[C@](C)(CCC(=O)NC[C@@H](C)OP(=O)([O-])O[C@H]1[C@@H](O)[C@@H](n6cnc7cc(C)c(C)cc76)O[C@@H]1CO)[C@H]5CC(N)=O)[C@@](C)(CC(N)=O)[C@@H]4CCC(N)=O)[C@@](C)(CC(N)=O)[C@@H]\3CCC(N)=O)C(C)(C)[C@@H]/2CCC(N)=O.[C-]#N.[Co+3],inactive: 0.407% [at 42.5 µM]
3,CC(C)N(CCO)C(C)C,inactive: 6.33%
4,Cc1ccc([N+](=O)[O-])c([N+](=O)[O-])c1,inactive: 3.67%
5,CCOP(=O)(CC)OCC,inactive: 1.07%
6,O=[N+]([O-])[O-].[NH4+],inactive: 1.68% and inactive: -3.08%
7,[NH4+].[O-][Cl+3]([O-])([O-])[O-],inactive: -3.58%
8,CCN(CC)CCCl,inactive: 1.05%
9,CCOP(=O)(CC)Oc1ccc([N+](=O)[O-])cc1 (stereo unspecified),inactive: -12.6% [at 42.5 µM]
10,Nc1cc([N+](=O)[O-])cc([N+](=O)[O-])c1O,inactive: -11.1%
11,COc1ccc([N+](=O)[O-])cc1[N+](=O)[O-],inactive: 0.176%
12,CC(C)OP(C)(=O)OC(C)C,inactive: -4.92% and inactive: -0.236%
13,Cc1c([N+](=O)[O-])cccc1[N+](=O)[O-],inactive: 9.61% and inactive: 6.07%
14,O=[N+]([O-])OCC(CO[N+](=O)[O-])(CO[N+](=O)[O-])CO[N+](=O)[O-],inactive: 2.95%
15,CP(=O)(O)OCCC[Si](O)(O)O,inactive: -16.4%
16,Cc1ccc([N+](=O)[O-])cc1[N+](=O)[O-],inactive: -2.25% and inactive: -1.43%
17,COP(C)(=O)OC,inactive: -12.6% and inactive: 5.86%
18,N#CBr,inactive: -7.13%
19,CN(C)CCCl,inactive: -1.32%
